# Publication PMC4865847, “Putative histidine kinase inhibitors with antibacterial effect against multi-drug resistant clinical isolates identified by in vitro and in silico screens” (Scientific Reports, 2016)
# What was measured:
# Type in all cases: cell-based
# [1] = test system: Staphylococcus aureus; experiment: Antibacterial susceptibility testing (MIC/MBC), S. aureus; conditions: DSM20231, read-out: MIC S. aureus DSM 20231
# Procedure: (§1) Minimal inhibitory concentrations (MICs) were determined following a standard double-dilution method. […] For S. pneumoniae MICs were determined by adapting the standard double-dilution method to anaerobic conditions and of this microorganism (use of Todd Hewitt Yeast extract with 200 U/mL of catalase and continuous monitoring of growth).
# [2] = test system: Staphylococcus epidermidis; experiment: Antibacterial susceptibility testing (MIC/MBC), S. epidermidis; conditions: DSM20044, read-out: MIC S. epidermidis DSM 20044
# Procedure: as §1
# [3] = test system: Escherichia coli; experiment: Antibacterial susceptibility testing (MIC/MBC), E. coli; conditions: read-out: MIC E. coli CFT 073
# Procedure: as §1
structure (smiles),measurement,setting,value
Nc1nc(-c2ccc(O)cc2)cs1 [F1.1],MIC,[1],500 µg/mL
same,MIC,[2],> 500 µg/mL
same,MIC,[3],500 µg/mL
